Target: T1, smHDAC8 (Schistosoma mansoni, UniProt A5H660)
T1 construct: made in house; host or cells: E. coli
T1 sequence (A5H660 1-440): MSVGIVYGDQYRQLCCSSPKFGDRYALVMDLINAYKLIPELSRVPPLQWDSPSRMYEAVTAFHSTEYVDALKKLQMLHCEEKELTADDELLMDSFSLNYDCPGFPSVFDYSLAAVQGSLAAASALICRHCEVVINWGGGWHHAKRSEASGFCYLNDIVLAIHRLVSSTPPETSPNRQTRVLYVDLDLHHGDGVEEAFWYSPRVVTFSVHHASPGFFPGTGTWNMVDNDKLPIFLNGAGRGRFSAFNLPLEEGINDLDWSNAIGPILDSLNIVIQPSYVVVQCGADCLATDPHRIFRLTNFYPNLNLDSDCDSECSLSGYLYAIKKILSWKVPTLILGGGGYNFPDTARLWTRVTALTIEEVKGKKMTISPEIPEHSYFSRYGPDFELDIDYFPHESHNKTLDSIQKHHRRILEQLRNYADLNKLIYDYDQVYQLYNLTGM
Assay: biochemical
Format: biochemical

O=C(CCCCCCC(=O)Nc1ccccc1)NO [SAHA (1), SAHA, reference compound]
IC50: 1170 ± 330 nM

O=C(NO)c1cn(-c2ccccc2)nn1 [Compound 2 b, N ‐Hydroxy‐1‐phenyl‐1H‐1,2,3‐triazole‐4‐carboxamide]
selectivity for smHDAC8 (over hsHDAC8) (from IC50 values smHDAC8 vs hsHDAC8): threefold

— PMC7187165, “Structure‐Based Design, Synthesis, and Biological Evaluation of Triazole‐Based smHDAC8 Inhibitors” (Chemmedchem, 2020)
